What was measured:
[1] = biological target: cloned human kappa opioid receptor (Homo sapiens (Human), UniProt P41145); test: cell-based; details: CHO, read-out: KAPPA OPIOID RECEPTOR % max effect
[2] = Plasma pharmacokinetics after intravenous dosing in male Sprague-Dawley rats; details: IV 1 mg/kg, PEGylated hydroxycodone

Compound	Emax [1] [%]	mean exposure (AUC) as compared to oxycodone [2]
COc1ccc2c3c1O[C@H]1[C@@H](O)C=C[C@H]4[C@@H](C2)N(C)CC[C@@]341 [Codeine, codeine]	3	
COCCOCCOCCO[C@H]1CC[C@@]2(O)[C@H]3Cc4ccc(OC)c5c4[C@@]2(CCN3C)[C@H]1O5 [α-6-mPEG3-O-Hydroxycodone, α-6-mPEG3-O-hydroxycodone]		higher mean exposure
COCCOCCOCCOCCOCCO[C@H]1CC[C@@]2(O)[C@H]3Cc4ccc(OC)c5c4[C@@]2(CCN3C)[C@H]1O5 [α-6-mPEG5-O-Hydroxycodone, α-6-mPEG5-O-hydroxycodone]		higher mean exposure
COCCOCCOCCOCCOCCOCCOCCOCCOCCO[C@H]1CC[C@@]2(O)[C@H]3Cc4ccc(OC)c5c4[C@@]2(CCN3C)[C@H]1O5 [α-6-mPEG9-O-Hydroxycodone, α-6-mPEG9-O-hydroxycodone]		higher mean exposure
